Data from patent US8785452B2, “Anti-infective compounds” (priority 2008, dated 2014).

System: Raw264.7 cells
Assay: Cell number (CellNb) from image analysis of the phenotypic cell-based assay

C/C(=N/NC(=O)c1cc([N+](=O)[O-])cc([N+](=O)[O-])c1)c1ccc([N+](=O)[O-])o1
QIM Confirm CellNb 0.2 uM (confirmation, 0.2 uM): 443.0 | QIM Confirm CellNb 2 uM (confirmation, 2 uM): 209.0 | QIM Confirm CellNb 20 uM (confirmation, 20 uM): 184.1 | Primary QIM CellNb (primary screen, 20 μM): 106.8
